The list shows a part of the results, in another mix than the full data. Calls of active or inactive are those of the source. Rule as the data show it: active = inhibition above about 30%; inactive = the rest.
What follows are compounds tested on Crimean-Congo hemorrhagic fever virus L polyprotein viral ovarian tumor (vOTU) protease domain (assay: CCHFV vOTU protease inhibitors, primary screen, biochemical, Pep-AMC substrate, fluorescence (AID 651958; also: 0% = vehicle wells with enzyme and 100% = no enzyme wells)). Settings: at 11.5 µM, hits give high values.
In the case of `CCC(=O)N(c1ccccc1)C1(COC)CCN(CCc2cccs2)CC1`, the inhibition is reported as inactive: -0.98%. `CCC(=O)N(c1ccccc1)C1(COC)CCN(CCn2nnn(CC)c2=O)CC1` was tested, and the inhibition was inactive: 1.99%.

— PubChem BioAssay AID651958 (The Scripps Research Institute Molecular Screening Center, 2012)
